These are literature values, as cited in US20190298669A1 (priority 2018, published 2019).

This series deals with tumor growth. Particulars: two weeks oral dosing, daily dose 200 mg/kg; cited from earlier work.

With `O=C(NOCC1CC1)c1ccc(F)c(F)c1Nc1ccc(I)cc1Cl`, the toxicity to mice entry is recorded as “not toxic”.
